Our source for the Km values is PMC5356311, “Experimental recreation of the evolution of lignin-degrading enzymes from the Jurassic to date” (Biotechnology for Biofuels, 2017).

Each structure is given as a SMILES string.

The assay has as its system CaPo. The conditions noted are these: read-out: CaPo; 0.4 mM H2O2, 0.1 M tartrate, pH 3.0, 25 °C; low efficiency site (heme channel).

Take `CCn1c(=NN=c2sc3cc(S(=O)(=O)O)ccc3n2CC)sc2cc(S(=O)(=O)O)ccc21` [ABTS]: the Km was determined as 3.17 ± 0.27 mM.
